Ends that are not written are not given here.
Biological target: human TSG101 UEV domain (residues 2-145), wild type (human) (UniProt Q99816)
Assay: ITC

Sequences of proteins named here, by UniProt entry; tags and fusion partners are left off. A change or cut given only in a name is not applied to a line headed by its entry.
UniProt Q99816: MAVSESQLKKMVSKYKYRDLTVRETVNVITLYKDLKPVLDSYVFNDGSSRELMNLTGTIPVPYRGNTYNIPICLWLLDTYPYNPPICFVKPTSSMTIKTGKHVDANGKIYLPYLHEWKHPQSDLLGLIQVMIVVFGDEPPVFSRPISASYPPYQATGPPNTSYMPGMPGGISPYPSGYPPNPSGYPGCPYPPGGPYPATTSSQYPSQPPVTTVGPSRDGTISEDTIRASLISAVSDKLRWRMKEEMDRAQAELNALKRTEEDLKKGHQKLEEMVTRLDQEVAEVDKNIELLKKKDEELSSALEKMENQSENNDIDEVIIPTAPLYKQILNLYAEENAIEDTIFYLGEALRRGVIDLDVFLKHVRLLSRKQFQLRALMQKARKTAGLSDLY

Q: For Ac-PTPSAPVPL [Hrs PSAP motif nonapeptide (residues 346-354 of human Hrs) …], which Kd is on record?
A: 290 µM

Source: publication PMC3124085 (Structure (London, England : 1993), 2010)
